Chains of the proteins cited; added tags and fusions are not shown. Lines headed by an entry give the natural chain unless they say otherwise; changes in a name come on top.
UniProt Q9P1W9: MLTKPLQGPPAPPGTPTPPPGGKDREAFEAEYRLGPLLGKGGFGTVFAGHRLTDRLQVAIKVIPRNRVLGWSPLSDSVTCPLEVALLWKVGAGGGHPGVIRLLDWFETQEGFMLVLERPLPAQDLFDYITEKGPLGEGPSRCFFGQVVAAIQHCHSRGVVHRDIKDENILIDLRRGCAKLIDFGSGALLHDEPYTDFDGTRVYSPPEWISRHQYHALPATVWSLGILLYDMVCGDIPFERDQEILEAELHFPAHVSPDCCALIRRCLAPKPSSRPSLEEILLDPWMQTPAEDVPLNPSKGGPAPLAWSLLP

In ChEMBL document CHEMBL5532678, “Comprehensive Insights that Targeting PIM for Cancer Therapy: Prospects and Obstacles” (J Med Chem, 2024):

Target: Serine/threonine-protein kinase pim-2 (Homo sapiens, UniProt Q9P1W9)

IC50: 36.3 nM
SMILES: CN1CCC(CNc2ccc3ncc(-c4cccc(OC(F)(F)F)c4)n3n2)CC1 [SGI-1776]
